Experiments:
[1] = Moisture-absorption ability measurement employing keratin powder (ground wool); type: physicochemical; details: keratin powder with sample, 20° C., 79.2% relative humidity, 48 hours; absorbed water per 1 g of keratin powder
Description: [Method of Moisture-Absorption Ability Measurement Carried Out by Employing Keratin Powder (Ground Wool)]
Moisture-absorption ability was evaluated by the following criteria.
Moisture-absorption ability rating criteria • ⊚: Amount of absorbed water per 1 g of keratin powder is 0.60 g or more. • ◯: Amount of absorbed water per 1 g of keratin powder is 0.50 g or more and less than 0.60 g • Δ: Amount of absorbed water per 1 g of keratin powder is 0.40 g or more and less than 0.50 g • X: Amount of absorbed water per 1 g of keratin powder is less than 0.40 g [Method of Moisturizing Effect Measurement Carried Out by Employing Keratin Powder (Ground Wool)]

[2] = Moisturizing effect measurement employing keratin powder (ground wool); type: physicochemical; details: (B/A)×100: water retained after further 6 hours at 20° C., 20.0% relative humidity, relative to water absorbed at 79.2% relative humidity for 48 hours
Description: For the constant-humidity bath under 20.0% of relative humidity, saturated aqueous potassium acetate solution was employed.
Moisturizing effect was evaluated by the following criteria,
Moisturizing effect rating criteria • ⊚: 60 or more • ◯: 50 or more and less than 60 • Δ: 40 or more and less than 50 • X: Less than 40

Moisturizing effect [2]: ⊚ (60 or more)
Substance: 1 sodium N-glycerylaspartate [Glyceryl derivative of aspartic acid]
Moisture-absorption ability [1]: ⊚ (Amount of absorbed water per 1 g of keratin powder is 0.60 g or more)

From patent US20060018864A1, “Cosmetic preparation containing glycerylamino acid derivative” (priority 2002, published 2006)
